Measurements as given in article PMC5260928 (Bioorganic & medicinal chemistry, 2016).

Biological target: gp41 hydrophobic pocket (Fe(envC)3) (Human immunodeficiency virus type 1 group M subtype B, UniProt P04578)
Assay: Surface plasmon resonance
Format: binding, HIV-1
Details: for kon: pH 7, read-out: ka, SPR 1:1 binding kinetic analysis, RUmax fixed; for Kd: kd/ka, SPR 1:1 binding kinetic analysis; for ka1 / ka2: bivalent binding model

| SMILES | kon | Kd | ka1 | ka2 |
| --- | --- | --- | --- | --- |
| O=C(CCc1c[nH]c2ccccc12)NCCCCCC(=O)Nc1ccc(C(=O)N[C@@H](Cc2c[nH]c3ccccc23)C(=O)O)cc1OCCc1c[nH]c2ccccc12 [Compound 10] | 11000 M⁻¹ s⁻¹ |  |  |  |
| Nc1ccc(C(=O)N[C@@H](Cc2c[nH]c3ccccc23)C(=O)O)cc1OCCc1c[nH]c2ccccc12 [Compound 3, H2N-[Trp]-Trp-OH] |  | 16 µM |  |  |
| O=C(CCC(=O)Nc1ccc(C(=O)N[C@@H](Cc2c[nH]c3ccccc23)C(=O)O)cc1OCCc1c[nH]c2ccccc12)NCCOCCOCCOCCNC(=O)CCC(=O)Nc1ccc(C(=O)N[C@@H](Cc2c[nH]c3ccccc23)C(=O)O)cc1OCCc1c[nH]c2ccccc12 [Compound 7] | 3700 M⁻¹ s⁻¹ | 16 µM | 2691 M⁻¹ s⁻¹ | 4.54e-5 RU^−1s^−1 |
| O=C(CCC(=O)Nc1ccc(C(=O)N[C@@H](Cc2c[nH]c3ccccc23)C(=O)O)cc1OCc1ccc(Cl)cc1)NCCOCCOCCOCCNC(=O)CCC(=O)Nc1ccc(C(=O)N[C@@H](Cc2c[nH]c3ccccc23)C(=O)O)cc1OCc1ccc(Cl)cc1 [Compound 8] | 1800 M⁻¹ s⁻¹ | 21 µM | 1489 M⁻¹ s⁻¹ | 2.27e-5 RU^−1s^−1 |
| Nc1ccc(C(=O)N[C@@H](Cc2c[nH]c3ccccc23)C(=O)O)cc1OCc1ccc(Cl)cc1 [Compound 4, H2N-[Phe4Cl]-Trp-OH] |  | 12 µM |  |  |
| O=C(CCc1c[nH]c2ccccc12)NCCCCCC(=O)Nc1ccc(C(=O)N[C@@H](Cc2c[nH]c3ccccc23)C(=O)O)cc1OCc1ccc(Cl)cc1 [Compound 11] | 13700 M⁻¹ s⁻¹ | 14 µM |  |  |
